Reference: ChEMBL document CHEMBL2010639, “Structure-activity relationship of selected polyphenol derivatives as inhibitors of Bax/Bcl-xL interaction” (Eur J Med Chem, 2012)

Amino acid sequences for entries named in this document (tags omitted).
UniProt Q07820, whole entry: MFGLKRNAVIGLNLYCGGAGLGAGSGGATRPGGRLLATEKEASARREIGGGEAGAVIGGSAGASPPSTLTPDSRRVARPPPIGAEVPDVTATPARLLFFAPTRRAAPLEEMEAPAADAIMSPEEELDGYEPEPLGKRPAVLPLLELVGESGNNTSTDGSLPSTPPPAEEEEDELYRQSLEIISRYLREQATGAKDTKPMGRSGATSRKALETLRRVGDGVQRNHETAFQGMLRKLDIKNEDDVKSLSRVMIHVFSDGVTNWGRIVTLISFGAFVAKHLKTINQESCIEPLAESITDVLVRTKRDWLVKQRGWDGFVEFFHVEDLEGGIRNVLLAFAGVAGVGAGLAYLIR

Biological target: Induced myeloid leukemia cell differentiation protein Mcl-1 (Homo sapiens, UniProt Q07820)
Assay: Binding affinity to Mcl-1

Ki: > 20 µM
Structure (SMILES): CN(C)CC[C@H](CSc1ccccc1)Nc1ccc(S(=O)(=O)NC(=O)c2ccc(N3CCN(Cc4ccccc4-c4ccc(Cl)cc4)CC3)cc2)cc1[N+](=O)[O-] [ABT 737]
